Experimental findings from US20090099157A1, “TETRAHYDRO-PYRAZOLO-PYRIDINE THIOETHER MODULATORS OF CATHEPSIN S” (priority 2007, published 2009) are described below.

Sequences of proteins named here, by UniProt entry; tags and fusion partners are left off. Residues count along the entry.
UniProt P25774, 115-331: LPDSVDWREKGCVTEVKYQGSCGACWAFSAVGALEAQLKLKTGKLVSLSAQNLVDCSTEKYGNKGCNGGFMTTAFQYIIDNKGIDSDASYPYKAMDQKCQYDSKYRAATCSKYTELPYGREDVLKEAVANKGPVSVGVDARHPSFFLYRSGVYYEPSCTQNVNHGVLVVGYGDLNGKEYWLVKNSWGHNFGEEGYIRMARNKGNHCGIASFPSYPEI

The target in this assay is Recombinant human cathepsin S (CatS) (Homo sapiens, UniProt P25774). Kind of assay: biochemical.

Consider `O=C(c1nc[nH]n1)N1CCc2c(c(-c3ccc(C(F)(F)F)c(SCCN4CCC(F)CC4)c3)nn2C[C@@H](O)CN2CCCCC2)C1` [Example 494, (2S)-1-{3-[3-{[2-(4-Fluoropiperidin-1-yl)ethyl]sulfanyl}-4-(trifluoromethyl)phenyl]-5-(1H-1,2,4-triazol-3-ylcarbonyl)-4,5,6,7-tetrahydro-1H-pyrazolo[4,3-c]pyridin-1-yl}-3-piperidin-1-ylpropan-2-ol], for which the IC50 stood at 200 nM.
As for `NC(=O)C1CCN(C[C@H](O)Cn2nc(-c3ccc(C(F)(F)F)c(SCCN4CCC(F)CC4)c3)c3c2CCNC3)CC1` [Example 323, 1-[(2S)-3-{3-[3-{[2-(4-Fluoropiperidin-1-yl)ethyl]sulfanyl}-4-(trifluoromethyl)phenyl]-4,5,6,7-tetrahydro-1H-pyrazolo[4,3-c]pyridin-1-yl}-2-hydroxypropyl]piperidine-4-carboxamide], the IC50 was found to be 3180 nM.
With `CS(=O)(=O)N1CCc2c(c(-c3ccc(C(F)(F)F)c(SCCN4CCC(C(N)=O)CC4)c3)nn2CCCN2CCC(N3CCCC3=O)CC2)C1` [Example 36, 1-{2-[5-(5-Methanesulfonyl-1-{3-[4-(2-oxo-pyrrolidin-1-yl)-piperidin-1-yl]-propyl}-4,5,6,7-tetrahydro-1H-pyrazolo[4,3-c]pyridin-3-yl)-2-trifluoromethyl-phenylsulfanyl]-ethyl}-piperidine-4-carboxylic acid amide] the figure was 240 nM; with `CS(=O)(=O)N1CCc2c(c(-c3ccc(C(F)(F)F)c(SCCNS(=O)(=O)c4ccccc4)c3)nn2CC(O)CN2CCC(N3CCCC3=O)CC2)C1` (stereo not drawn) [Example 875, N-[2-({5-[1-{2-Hydroxy-3-[4-(2-oxopyrrolidin-1-yl)piperidin-1-yl]propyl}-5-(methylsulfonyl)-4,5,6,7-tetrahydro-1H-pyrazolo[4,3-c]pyridin-3-yl]-2-(trifluoromethyl)phenyl}sulfanyl)ethyl]benzenesulfonamide], 120 nM.
With `CS(=O)(=O)N1CCc2c(c(-c3ccc(C(F)(F)F)c(SCCN4CCC(F)CC4)c3)nn2CC(O)CN2CCC(c3ccncc3)CC2)C1` (stereo not drawn) [Example 726, 1-{3-[3-{[2-(4-Fluoropiperidin-1-yl)ethyl]sulfanyl}-4-(trifluoromethyl)phenyl]-5-(methylsulfonyl)-4,5,6,7-tetrahydro-1H-pyrazolo[4,3-c]pyridin-1-yl}-3-(4-pyridin-4-ylpiperidin-1-yl)propan-2-ol] the figure was 30 nM.
With `CS(=O)(=O)N1CCc2c(c(-c3ccc(C(F)(F)F)c(SCCN4CCC(F)CC4)c3)nn2C[C@@H](O)CN2CCC[C@@H](C(=O)O)C2)C1` [Example 614, (3R)-1-[(2S)-3-{3-[3-{[2-(4-Fluoropiperidin-1-yl)ethyl]sulfanyl}-4-(trifluoromethyl)phenyl]-5-(methylsulfonyl)-4,5,6,7-tetrahydro-1H-pyrazolo[4,3-c]pyridin-1-yl}-2-hydroxypropyl]piperidine-3-carboxylic acid] the figure was 190 nM.
On to `CS(=O)(=O)N1CCc2c(c(-c3ccc(C(F)(F)F)c(SCCN4CCC(O)CC4)c3)nn2CC(O)CN2CCCCC2)C1` (stereo not drawn) [Example 169, 1-[2-({5-[1-(2-Hydroxy-3-piperidin-1-ylpropyl)-5-(methylsulfonyl)-4,5,6,7-tetrahydro-1H-pyrazolo[4,3-c]pyridin-3-yl]-2-(trifluoromethyl)phenyl}sulfanyl)ethyl]piperidin-4-ol], for which the IC50 came to 570 nM.
Consider `CC(C)N(C(=O)N1CCc2c(c(-c3ccc(C(F)(F)F)c(SCCN4CCC(F)CC4)c3)nn2C[C@@H](O)CN2CCCCC2)C1)C(C)C` [Example 635, 3-[3-{[2-(4-Fluoropiperidin-1-yl)ethyl]sulfanyl}-4-(trifluoromethyl)phenyl]-1-[(2S)-2-hydroxy-3-piperidin-1-ylpropyl]-N,N-bis(1-methylethyl)-1,4,6,7-tetrahydro-5H-pyrazolo[4,3-c]pyridine-5-carboxamide], for which the IC50 came to 930 nM.
As to `CC1CCCN1C(=O)CSc1cc(-c2nn(CCCN3CCC(N4CCCC4=O)CC3)c3c2CN(S(C)(=O)=O)CC3)ccc1C(F)(F)F` (stereo not drawn) [Example 76, 1-{1-[3-(5-Methanesulfonyl-3-{3-[2-(2-methyl-pyrrolidin-1-yl)-2-oxo-ethylsulfanyl]-4-trifluoromethyl-phenyl}-4,5,6,7-tetrahydro-pyrazolo[4,3-c]pyridin-1-yl)-propyl]-piperidin-4-yl}-pyrrolidin-2-one], the IC50 was 100 nM.
With `CC(C)(C)OC(=O)N1CCCC(C(=O)NCCSc2cc(-c3nn(CC(O)CN4CCC(N5CCCC5=O)CC4)c4c3CN(S(C)(=O)=O)CC4)ccc2C(F)(F)F)C1` (stereo not drawn) [Example 122, 3-{2-[5-(1-{2-Hydroxy-3-[4-(2-oxo-pyrrolidin-1-yl)-piperidin-1-yl]-propyl}-5-methanesulfonyl-4,5,6,7-tetrahydro-1H-pyrazolo[4,3-c]pyridin-3-yl)-2-trifluoromethyl-phenylsulfanyl]-ethylcarbamoyl}-piperidine-1-carboxylic acid tert-butyl ester] the figure was 330 nM; with `CS(=O)(=O)N1CCc2c(c(-c3ccc(C(F)(F)F)c(SCCN4CCC(F)CC4)c3)nn2CC(O)CN2CCC(c3ccccn3)CC2)C1` (stereo not drawn) [Example 189, 1-{3-[3-{[2-(4-Fluoropiperidin-1-yl)ethyl]sulfanyl}-4-(trifluoromethyl)phenyl]-5-(methylsulfonyl)-4,5,6,7-tetrahydro-1H-pyrazolo[4,3-c]pyridin-1-yl}-3-(4-pyridin-2-ylpiperidin-1-yl)propan-2-ol], 10 nM; with `O=C(C1CCN(CC(O)Cn2nc(-c3ccc(C(F)(F)F)c(SCCN4CCC(F)(F)C4)c3)c3c2CCNC3)CC1)N1CCCC1` (stereo not drawn) [Example 532, 1-{3-[3-{[2-(3,3-Difluoropyrrolidin-1-yl)ethyl]sulfanyl}-4-(trifluoromethyl)phenyl]-4,5,6,7-tetrahydro-1H-pyrazolo[4,3-c]pyridin-1-yl}-3-[4-(pyrrolidin-1-ylcarbonyl)piperidin-1-yl]propan-2-ol], 1250 nM.
Consider `CC(=O)NC1CCN(C[C@H](O)Cn2nc(-c3ccc(C(F)(F)F)c(SCCN4CCCC(F)C4)c3)c3c2CCN(S(C)(=O)=O)C3)CC1` (stereo partly drawn) [Example 655, N-{1-[(2S)-3-{3-[3-{[2-(3-Fluoropiperidin-1-yl)ethyl]sulfanyl}-4-(trifluoromethyl)phenyl]-5-(methylsulfonyl)-4,5,6,7-tetrahydro-1H-pyrazolo[4,3-c]pyridin-1-yl}-2-hydroxypropyl]piperidin-4-yl}acetamide], for which the IC50 worked out at 80 nM.
As to `CS(=O)(=O)N1CCc2c(c(-c3ccc(C(F)(F)F)c(SCCN4CCC(O)CC4)c3)nn2CC(O)CN2CCC(c3ccccn3)CC2)C1` (stereo not drawn) [Example 172, 1-(2-{[5-{1-[2-Hydroxy-3-(4-pyridin-2-ylpiperidin-1-yl)propyl]-5-(methylsulfonyl)-4,5,6,7-tetrahydro-1H-pyrazolo[4,3-c]pyridin-3-yl}-2-(trifluoromethyl)phenyl]sulfanyl}ethyl)piperidin-4-ol], the IC50 stood at 20 nM.
With `CS(=O)(=O)N1CCc2c(c(-c3ccc(C(F)(F)F)c(SCCNC4CC4)c3)nn2CCCN2CCC(N3CCCC3=O)CC2)C1` [Example 524, 1-[1-(3-{3-[3-{[2-(Cyclopropylamino)ethyl]sulfanyl}-4-(trifluoromethyl)phenyl]-5-(methylsulfonyl)-4,5,6,7-tetrahydro-1H-pyrazolo[4,3-c]pyridin-1-yl}propyl)piperidin-4-yl]pyrrolidin-2-one] the figure was 200 nM; with `CS(=O)(=O)N1CCc2c(c(-c3ccc(C(F)(F)F)c(SCCN4CCCCC4)c3)nn2CC(O)CN2CCC(O)C2)C1` (stereo not drawn) [Example 349, 1-{2-Hydroxy-3-[5-(methylsulfonyl)-3-{3-[(2-piperidin-1-ylethyl)sulfanyl]-4-(trifluoromethyl)phenyl}-4,5,6,7-tetrahydro-1H-pyrazolo[4,3-c]pyridin-1-yl]propyl}pyrrolidin-3-ol], 520 nM; with `CS(=O)(=O)N1CCc2c(c(-c3ccc(C(F)(F)F)c(SCCN4CCCC(CO)C4)c3)nn2CC(O)CN2CCC(C(=O)N3CCCC3)CC2)C1` (stereo not drawn) [Example 158, 1-{3-[3-({2-[3-(Hydroxymethyl)piperidin-1-yl]ethyl}sulfanyl)-4-(trifluoromethyl)phenyl]-5-(methylsulfonyl)-4,5,6,7-tetrahydro-1H-pyrazolo[4,3-c]pyridin-1-yl}-3-[4-(pyrrolidin-1-ylcarbonyl)piperidin-1-yl]propan-2-ol], 170 nM.
In the case of `CC(=O)N1CCc2c(c(-c3ccc(C(F)(F)F)c(SCC(=O)N4CCCC4)c3)nn2CC(O)CN2CCC3(CC2)OCCO3)C1` (stereo not drawn) [Example 423, 1-(5-Acetyl-3-{3-[(2-oxo-2-pyrrolidin-1-ylethyl)sulfanyl]-4-(trifluoromethyl)phenyl}-4,5,6,7-tetrahydro-1H-pyrazolo[4,3-c]pyridin-1-yl)-3-(1,4-dioxa-8-azaspiro[4.5]dec-8-yl)propan-2-ol], the IC50 was 200 nM.
`CS(=O)(=O)N1CCc2c(c(-c3ccc(C(F)(F)F)c(SCCNC4CCCC4)c3)nn2CCCN2CCC(N3CCCC3=O)CC2)C1` [Example 23, 1-[1-(3-{3-[3-(2-Cyclopentylamino-ethylsulfanyl)-4-trifluoromethyl-phenyl]-5-methanesulfonyl-4,5,6,7-tetrahydro-pyrazolo[4,3-c]pyridin-1-yl}-propyl)-piperidin-4-yl]-pyrrolidin-2-one]: the IC50 came out at 270 nM.
As for `CS(=O)(=O)N1CCc2c(c(-c3ccc(C(F)(F)F)c(SCCN4CCOCC4)c3)nn2CC(O)CN2CCC(F)CC2)C1` (stereo not drawn) [Example 177, 1-(4-Fluoropiperidin-1-yl)-3-[5-(methylsulfonyl)-3-{3-[(2-morpholin-4-ylethyl)sulfanyl]-4-(trifluoromethyl)phenyl}-4,5,6,7-tetrahydro-1H-pyrazolo[4,3-c]pyridin-1-yl]propan-2-ol], the IC50 is 550 nM.
In the case of `CC1(O)CCN(C[C@H](O)Cn2nc(-c3ccc(C(F)(F)F)c(SCCN4CCC(F)(F)CC4)c3)c3c2CCN(S(C)(=O)=O)C3)CC1` [Example 632, 1-[(2S)-3-{3-[3-{[2-(4,4-Difluoropiperidin-1-yl)ethyl]sulfanyl}-4-(trifluoromethyl)phenyl]-5-(methylsulfonyl)-4,5,6,7-tetrahydro-1H-pyrazolo[4,3-c]pyridin-1-yl}-2-hydroxypropyl]-4-methylpiperidin-4-ol], the IC50 amounted to 160 nM.

What is called IC50 is the concentration at which inhibition is half-maximal.
